Broadly, the MIC is the smallest concentration in the dilution series that meets the test's criterion for growth inhibition. A lower MIC goes with inhibition by little substance.

This test has as its system Staphylococcus aureus. The following applies: NCTC12493.

The sequence GENTAMICIN gave an MIC of 0.5 µg/mL.

These data come from ChEMBL document CHEMBL4665840, “New antibacterial cadiolide analogues active against antibiotic-resistant strains” (Bioorg Med Chem Lett, 2020).
